The target of this experiment is human CCR1 receptor (Homo sapiens, UniProt P32246). Nature of the experiment: In vitro assay for CCR1 receptor antagonists: competition with 125I-MIP-1α or 125I-RANTES on 293MR cells. The class given is binding.

The chains behind the UniProt entries cited, without tags or fusion partners.
UniProt P32246, whole entry: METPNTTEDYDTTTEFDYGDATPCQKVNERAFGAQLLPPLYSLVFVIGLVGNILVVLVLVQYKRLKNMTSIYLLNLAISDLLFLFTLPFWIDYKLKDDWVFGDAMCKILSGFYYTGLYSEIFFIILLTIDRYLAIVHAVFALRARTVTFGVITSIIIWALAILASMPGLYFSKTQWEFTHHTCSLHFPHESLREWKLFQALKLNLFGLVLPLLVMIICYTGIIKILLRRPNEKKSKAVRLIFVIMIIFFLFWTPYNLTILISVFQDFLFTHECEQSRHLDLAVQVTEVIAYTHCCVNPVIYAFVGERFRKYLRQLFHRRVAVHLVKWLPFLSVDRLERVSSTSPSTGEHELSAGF

`COc1cccc(OCC(=O)N2CCN(Cc3ccccc3)CC2)c1` gave a Ki (Table 1, cells printed in μM) of more than 10 µM.
Molecule `[N-]=[N+]=NCCC1CN(Cc2ccc(F)cc2)CCN1C(=O)COc1ccc(Cl)cc1` (centres unmarked) displayed a Ki (Table 2) of 0.049 µM.
Turning to `COc1ccc(OCC(=O)N2CCN(Cc3ccccc3)CC2)cc1`, the Ki (Table 1, cells printed in μM) was more than 10 µM.
For the molecule `COc1cc(OCC(=O)N2CCN(Cc3ccccc3)CC2)cc(OC)c1OC`, the Ki (Table 1, cells printed in nM) amounted to 0.328 µM.
In turn, `COc1cc(OCC(=O)N2CCN(Cc3ccc(F)cc3)CC2C)cc(OC)c1OC` (centres unmarked) showed a Ki (Table 1, cells printed in nM) of 0.018 µM.
Where the note is “Table 1, cells printed in nM”, `CC1CN(Cc2ccc(F)cc2)CCN1C(=O)COc1ccc(Cl)cc1` (centres unmarked) registered a Ki of 0.01 µM.
The molecule `CC1CN(C(=O)COc2ccc(Cl)cc2)C(C)CN1Cc1ccc(F)cc1` (centres unmarked) gave a Ki (Table 1, cells printed in nM) of 0.004 µM.
In turn, `CC1CN(Cc2ccc(F)cc2)CCN1C(=O)C(C)(C)Oc1ccc(Cl)cc1` (centres unmarked) registered a Ki (Table 1, cells printed in μM) of more than 10 µM.

These data come from patent publication US20080119471A1, “Piperazine urea derivatives for the treatment of endometriosis” (priority 2004, published 2008).
